The text below walks through data of patent US8372973B2, “Prokineticin 1 receptor antagonists” (Janssen Pharmaceutica N.V., priority 2005, dated 2013).

Amino acid sequences for entries named in this document (tags omitted).
UniProt Q8TCW9, whole entry: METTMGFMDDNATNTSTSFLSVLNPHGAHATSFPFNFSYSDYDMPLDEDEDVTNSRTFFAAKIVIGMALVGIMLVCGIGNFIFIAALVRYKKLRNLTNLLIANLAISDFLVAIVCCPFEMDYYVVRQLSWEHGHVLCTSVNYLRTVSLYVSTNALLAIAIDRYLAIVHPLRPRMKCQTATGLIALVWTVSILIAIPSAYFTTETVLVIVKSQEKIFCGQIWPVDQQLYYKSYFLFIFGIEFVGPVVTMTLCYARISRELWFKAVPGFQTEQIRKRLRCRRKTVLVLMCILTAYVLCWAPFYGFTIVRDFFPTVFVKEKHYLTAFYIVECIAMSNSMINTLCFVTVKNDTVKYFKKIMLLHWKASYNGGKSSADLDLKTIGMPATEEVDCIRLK

The target of the assay is GPR73 (prokineticin 1 receptor) (Homo sapiens, UniProt Q8TCW9). The assay is described as follows: PK1 functional assay: Ca2+ mobilization on the FLIPR. The procedure: At a time of 24 h prior to running the assay, in cell culture media (DMEM containing high Glucose and L-glutamine, 10% FBS, 1% Pen/Streptomycin, 1% Sodium Pyruvate, 20 mM HEPES, Zeocin 200 mg/L), […] of 1.3*10^6/ml HEK 293 GPR73 (prokineticin 1 receptor) expressing cells were plated in a 96 well poly-d-lysine coated plate (Costar), and incubated at 37° C. and 5% CO2. On the day in which the assay was run, the media was removed and […] of 5× Calcium Plus Dye (Molecular Devices) which was previously resuspended with 200 mL of assay buffer [HBSS w/Ca^2+ and Mg^2+ w/o phenol red, 20 mM HEPES, 0.1% BSA, 10 mL probenecid (710 mg probenecid in 5 mL of 1N NaOH, to which was then added 5 mL HBSS containing 20 mM HEPES)] was added to each well of the 96-well plate. The plate was incubated at 37° C. and 5% CO2 for 30 min in dark. The plate was removed and allowed to reach RT for 15 min in the dark. The assay was then run on the FLIPR. In Brief: base line read for 1 min, compound added (25 μL) and incubated for 4 min, 15 seconds, PK1 ligand preparation added (25 μL) for a final concentration of a previously determined EC50 and fluorescence was counted for 1 min, 45 seconds. Baseline is described as the amount of relative fluorescence read when buffer alone is added to cells. Baseline was subtracted from all wells. Percent of control was calculated as follows: […]

The IC50 is the concentration needed to halve the response being measured.

In the case of `COc1ccc(Cn2c(NCc3cnc(C)cc3C)nc(=O)n(Cc3ccncc3)c2=O)cc1`, under “@10 μM compound”, the “Ca^2+ Mobilization % Inh @10 μM” value is 42%. Further, for the setting “read-out: Ca^2+ Mobilization IC50, HEK 293 GPR73 expressing cells, PK1 ligand preparation at its EC50”, the IC50 is more than 10 µM.
